Test results from patent US20040039173A1 (SALK INSTITUTE FOR BIOLOGICAL STUDIES, published 2004).

Molecular target: T1, human CRF receptor, subtype A, variant 1 (hCRF-RA1), encoded by clone hctCRFR (human, UniProt P34998 24-415)
T1 construct: Transiently expressed in COSM6 cells; Clone hctCRFR (ATCC 75474) and clone CRF-R1 are both said to encode hCRF-RA1; also called CRF-R1; hctCRF receptor
T1 sequence: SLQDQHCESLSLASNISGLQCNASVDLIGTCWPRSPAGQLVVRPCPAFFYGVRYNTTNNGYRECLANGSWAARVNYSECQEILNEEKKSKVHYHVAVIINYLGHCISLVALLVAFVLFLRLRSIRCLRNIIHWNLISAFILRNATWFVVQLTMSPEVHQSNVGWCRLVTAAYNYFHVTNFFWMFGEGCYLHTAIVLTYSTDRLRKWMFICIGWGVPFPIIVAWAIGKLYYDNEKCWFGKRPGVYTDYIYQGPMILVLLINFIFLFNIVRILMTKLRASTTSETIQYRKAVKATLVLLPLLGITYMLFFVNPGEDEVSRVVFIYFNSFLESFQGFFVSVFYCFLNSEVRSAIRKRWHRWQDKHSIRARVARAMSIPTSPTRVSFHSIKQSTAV
Assay: binding to the receptor encoded by hctCRFR in COSM6 cell membranes (competitive radioreceptor assay of Example 3)
Description: Two days after transfection, the cells were washed twice with 1 ml HDB and were detached by incubation for 15 min at room temperature in 0.5 mM EDTA in HDB. After pelleting, the cells were washed twice with HDB, and then homogenized in 5% sucrose (16 ml/150 mm dish). The homogenate was centrifuged at 600×g for 5 minutes, and the resulting supernatant was centrifuged at 40,000×g for 20 minutes.
The reaction was terminated by filtration through GF/C (Whatman) filters, prewetted with 1% BSA, 10 mM HEPES, pH 7.5. The filters were washed 4 times with 1 ml 0.1% BSA, 50 mM Tris, pH 7.5.

Kd: 2.3 nM
B1: ovine CRF (ligand)
peptide: SQEPPISLDLTFHLLREVLEMTKADQLAQQAHSNRKLLDIA
modifications: chain 1: natural C-terminal amide (Ala41-NH2), which the letters cannot carry and the passages shown do not state
notes: also called oCRF
